In ChEMBL document CHEMBL1121477, “Noval antitumor nitrosoureas and related compounds and their reactions with DNA” (1980):

Assay: Compound was evaluated for its ability to exhibit alkylating property toward DNA at 5 mM in 180 min
Format: functional
How it was run: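 Alkylation was measured with PM2 covalently closed circular DNA (1.2 A280 units, 90% CCC) and 5 mM agent in 200 µL at 37 °C. Aliquots were taken into 20 mM potassium phosphate pH 11.8, 0.4 mM EDTA and 0.5 µg/mL ethidium, heated at 96 °C for 4 min, then rapidly cooled. Fluorescence loss relative to control gives the extent of alkylation.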

ClCCOP(OCCCl)OCCCl
Alkylation: 0%
